Test results from US20040029871A1, “Pharmaceutical compounds for treating copd” (priority 2000, published 2004).

Amino acid sequences for entries named in this document (tags omitted). Residues count along the entry.
UniProt P05164, 279-745 limits assumed: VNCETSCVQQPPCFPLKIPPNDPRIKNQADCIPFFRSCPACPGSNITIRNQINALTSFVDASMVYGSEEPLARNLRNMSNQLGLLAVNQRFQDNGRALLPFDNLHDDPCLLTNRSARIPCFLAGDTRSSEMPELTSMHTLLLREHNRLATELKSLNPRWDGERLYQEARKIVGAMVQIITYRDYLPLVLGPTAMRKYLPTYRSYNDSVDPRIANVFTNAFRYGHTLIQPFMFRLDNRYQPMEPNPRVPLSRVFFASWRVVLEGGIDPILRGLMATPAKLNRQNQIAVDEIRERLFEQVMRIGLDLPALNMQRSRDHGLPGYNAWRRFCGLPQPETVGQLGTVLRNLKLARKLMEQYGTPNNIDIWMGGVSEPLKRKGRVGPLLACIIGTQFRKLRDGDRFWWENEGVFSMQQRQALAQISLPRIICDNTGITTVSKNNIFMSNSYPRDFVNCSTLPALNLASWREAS
UniProt P05164, 165-273 limits assumed: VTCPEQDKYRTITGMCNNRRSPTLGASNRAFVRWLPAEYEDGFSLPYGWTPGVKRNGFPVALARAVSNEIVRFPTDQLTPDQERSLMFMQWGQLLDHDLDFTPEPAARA

Biological target: T1, human MPO (Homo sapiens, UniProt P05164)
T1 construct: purchased Planta
Assay: in vitro MPO assay measuring production of hypochlorus acid (HOCl)
Format: biochemical
Procedure: Here we describe an in vitro MPO assay that was developed to assess inhibition of enzyme activity. Essentially the MPO assay was designed to measure the production of hypochlorus acid (HOCl), which is the key physiological product generated by the enzyme in vivo. An outline of the assay reactions is given: [drawing 5]
Compounds were preincubated with the MPO enzyme in buffer for about 15 min prior to start of reaction with H2O2. The whole reaction was carried out at room temperatutre for 10 min in a 96-well plate. […] All test concentrations were done in duplicated with at least two separate determinations n=2, unless otherwise stated. The inhibitory concentration for a compound is presentated as pIC50, which is −log IC50.

CCOC(=O)c1ccc(N)cc1 [Ethyl aminobenzoate]
IC50: 631 nM
